Results published in patent US7985561B2 (priority 2006, dated 2011).
Like-named read-outs stand apart in the source and are kept apart here.

Test system: breast cancer patients

Compound: O=P1(N(CCCl)CCCl)NCCCO1 (stereo not drawn) [Cyclophosphamide]
- HR (95% CI), univariate (5-year breast cancer survival, Ala/Ala vs Val/Val & Val/Ala (ref.), recessive model): 2.96 (1.59-5.52)
- HR (95% CI), multivariate (5-year breast cancer survival, Ala/Ala vs Val/Val & Val/Ala (ref.), recessive model, multivariate Cox regression): 5.06 (2.39-10.7)
- HR (95% CI), multivariate (5-year breast cancer survival, Ala/Ala vs Val/Val (ref.), multivariate Cox regression): 20.3 (4.43-93.3)
- HR (95% CI), multivariate (5-year breast cancer survival, Ala/Ala vs Val/Val (ref.), multivariate Cox regression, listed as cyclophosphamide): 20.3
- HR (95% CI), univariate (5-year breast cancer survival, Ala/Ala vs Val/Val (ref.), patients receiving the drug-based chemotherapy): 6.13 (2.06-18.3)
- HR (95% CI), univariate (5-year breast cancer survival, Val/Ala & Ala/Ala vs Val/Val (ref.), dominant model): 3.62 (1.29-10.1)
- HR (95% CI), multivariate (5-year breast cancer survival, Val/Ala & Ala/Ala vs Val/Val (ref.), dominant model, multivariate Cox regression): 3.39 (1.15-9.99)
- HR (95% CI), multivariate (5-year breast cancer survival, Val/Ala vs Val/Val (ref.), multivariate Cox regression): 1.88 (0.85-6.09)
- HR (95% CI), univariate (5-year breast cancer survival, Val/Ala vs Val/Val (ref.), patients receiving the drug-based chemotherapy): 2.70 (0.92-7.89)
- HR (95% CI), multivariate (10-year breast cancer survival, Ala/Ala vs Val/Val & Val/Ala (ref.), recessive model, adjusted Cox regression): 4.33 (2.18-8.58)
- HR (95% CI), univariate (10-year breast cancer survival, Ala/Ala vs Val/Val & Val/Ala (ref.), recessive model, patients receiving the drug-based chemotherapy): 2.75 (1.56-4.86)
- HR (95% CI), multivariate (10-year breast cancer survival, Ala/Ala vs Val/Val (ref.), Cox regression adjusted for age, study site, race, tumor size, nodes, grade, ER, p53): 22.1 (5.06-96.4)
- HR (95% CI), multivariate (10-year breast cancer survival, Ala/Ala vs Val/Val (ref.), Cox regression adjusted for age, study site, race, tumor size, nodes, grade, ER, p53, listed as cyclophosphamide): 22.1
- HR (95% CI), univariate (10-year breast cancer survival, Ala/Ala vs Val/Val (ref.), patients receiving the drug-based chemotherapy): 5.81 (2.17-15.2)
- HR (95% CI), multivariate (10-year breast cancer survival, Val/Ala & Ala/Ala vs Val/Val (ref.), dominant model, adjusted Cox regression): 3.24 (1.23-8.54)
- HR (95% CI), univariate (10-year breast cancer survival, Val/Ala & Ala/Ala vs Val/Val (ref.), dominant model, patients receiving the drug-based chemotherapy): 3.63 (1.44-9.14)
- HR (95% CI), multivariate (10-year breast cancer survival, Val/Ala vs Val/Val (ref.), Cox regression adjusted for age, study site, race, tumor size, nodes, grade, ER, p53): 2.02 (0.71-5.72)
- HR (95% CI), univariate (10-year breast cancer survival, Val/Ala vs Val/Val (ref.), patients receiving the drug-based chemotherapy): 2.82 (1.08-7.36)
